Data published in patent EP0658565A1, “Oral products” (UNILEVER PLC, priority 1993, dated 1995).

Assay: physical data: solubility
Format: physicochemical

## stannous glucose-6-phosphate [Sn G-6-P]
methanol
  solubility in methanol: insoluble in methanol
water
  solubility in water: freely soluble in water
